Source: patent publication US20230135127A1, “COMPOSITIONS AND METHODS FOR DISEASE TREATMENT AND PREVENTION BY PH MODIFIERS AND/OR CELL PROLIFERATION INHIBITORS” (priority 2021, published 2023)

Tested on: proliferating cells in the lung tissue

SMILES	Ki-67+ cells in the lung tissues (IHC) (i.t. HCl or HOAc, i.p. NaOH)	alveolar walls, layers of pneumocytes (saline: multiple layers)	alveolar walls, layers of pneumocytes (mouse, in vivo)	Ki-67+ cells in the lung tissues (IHC) (mouse, in vivo, ip)	Ki-67 staining intensity in lungs (vs saline- or acid-treated mice)
Cl [HCl, hydrochloric acid]	only sporadically detected	a single layer of pneumocytes			
CC(=O)O [HOAc, acetic acid]			a single layer of pneumocytes	only sporadically detected	
[Na+].[OH-] [NaOH, sodium hydroxide]	abundant	multiple layers of pneumocytes			stronger

Counter-ions that a name gives are not always drawn. Like-named read-outs stand apart in the source and are kept apart here.
